Values quoted from earlier work, collected in patent US10806871B2, “Inhalable dry powders” (priority 2012, dated 2020).

Conditions: listing, cf. PCT Publication WO/2004/062643; cited from earlier work

Medroxyprogesterone
Solubility In Water: Insoluble
